These results are taken from IntAct's records for PubMed 22854040.

The chains are these.
B1: Optineurin (Homo sapiens), Q96CV9 (parent)
chain: MSHQPLSCLTEKEDSPSESTGNGPPHLAHPNLDTFTPEELLQQMKELLTENHQLKEAMKLNNQAMKGRFEELSAWTEKQKEERQFFEIQSKEAKERLMALSHENEKLKEELGKLKGKSERSSEDPTDDSRLPRAEAEQEKDQLRTQVVRLQAEKADLLGIVSELQLKLNSSGSSEDSFVEIRMAEGEAEGSVKEIKHSPGPTRTVSTGTALSKYRSRSADGAKNYFEHEELTVSQLLLCLREGNQKVERLEVALKEAKERVSDFEKKTSNRSEIETQTEGSTEKENDEEKGPETVGSEVEALNLQVTSLFKELQEAHTKLSEAELMKKRLQEKCQALERKNSAIPSELNEKQELVYTNKKLELQVESMLSEIKMEQAKTEDEKSKLTVLQMTHNKLLQEHNNALKTIEELTRKESEKVDRAVLKELSEKLELAEKALASKQLQMDEMKQTIAKQEEDLETMTILRAQMEVYCSDFHAERAAREKIHEEKEQLALQLAVLLKENDAFEDGGRQSLMEMQSRHGARTSDSDQQAYLVQRGAEDRDWRQQRNIPIHSCPKCGEVLPDIDTLQIHVMDCII
partner: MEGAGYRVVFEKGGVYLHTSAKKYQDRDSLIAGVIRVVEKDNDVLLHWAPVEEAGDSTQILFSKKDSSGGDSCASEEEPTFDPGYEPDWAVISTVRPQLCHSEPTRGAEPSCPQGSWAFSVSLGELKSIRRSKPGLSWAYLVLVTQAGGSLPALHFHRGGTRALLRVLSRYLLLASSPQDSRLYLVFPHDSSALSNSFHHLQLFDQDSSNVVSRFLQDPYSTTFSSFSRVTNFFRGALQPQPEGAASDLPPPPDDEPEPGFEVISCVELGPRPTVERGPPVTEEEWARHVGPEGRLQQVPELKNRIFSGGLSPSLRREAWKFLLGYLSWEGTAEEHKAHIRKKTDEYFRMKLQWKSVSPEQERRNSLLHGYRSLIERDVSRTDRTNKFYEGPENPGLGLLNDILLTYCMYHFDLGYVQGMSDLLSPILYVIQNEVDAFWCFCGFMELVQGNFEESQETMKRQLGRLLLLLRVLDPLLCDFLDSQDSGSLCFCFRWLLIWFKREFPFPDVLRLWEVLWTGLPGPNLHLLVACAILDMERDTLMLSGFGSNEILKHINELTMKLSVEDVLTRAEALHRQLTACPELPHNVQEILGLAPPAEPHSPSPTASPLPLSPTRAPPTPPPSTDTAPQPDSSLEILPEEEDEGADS
B2: Optineurin (Homo sapiens), Q96CV9 (parent)
chain: B1 chain

Variants of B1 are the subject of the first assay. Particulars: with tbc17_human TBC1D17, Q9HA65.
Consider E50K, for which the “effect of a mutation on the interaction” value is recorded as “increasing interaction”.

The variants in a further assay derive from B2. Conditions: with rab8a_human RAB8A.
On to E50K, for which the “effect of a mutation on the interaction” value is recorded as “decreasing interaction”.

Variants of B2 are the subject of another assay. Conditions: with rab8a_human RAB8A. The source holds these as a separate data set.
Turning to E50K, the “effect of a mutation on the interaction” value was “disrupting interaction”.
